The assay has as its target T1, HDAC1 enzyme (Homo sapiens, UniProt Q13547).
T1 construct: Amplification of human HDAC1 coding region from this cDNA library was cloned separately into the baculovirus expression pDEST20 vector; made in house; host or cells: SF9 insect cells (baculovirus, pDEST20 vector)
The assay is described as follows: In vitro HDAC assay for determination of IC50 values (BIOMOL fluorescent-based HDAC activity assay). It is filed as biochemical. The settings on record: recombinant GST-HDAC1, 500 uM Flur de lys substrate, room temperature 2 h; read-out: IC50 (HDAC 1). The method, then: Human cDNA library was prepared using cultured SW620 cells. Amplification of human HDAC1 coding region from this cDNA library was cloned separately into the baculovirus expression pDEST20 vector (GATEWAY Cloning Technology, Invitrogen Pte Ltd). The pDEST20-HDAC1 construct was confirmed by DNA sequencing. Recombinant baculovirus was prepared using the Bac-To-Bac method following the manufacturer's instruction (Invitrogen Pte Ltd). Baculovirus titer was determined by plaque assay to be about 10^8 PFU/ml.
Expression of GST-HDAC1 was done by infecting SF9 cells (Invitrogen Pte Ltd) with pDEST20-HDAC1 baculovirus at MOI=1 for 48 h. Soluble cell lysate was incubated with pre-equilibrated Glutathione Sepharose 4B beads (Amersham) at 4°C for 2 h. The beads were washed with PBS buffer for 3 times. The GST-HDAC1 protein was eluted by elution buffer containing 50 mM Tris, pH8.0, 150mM NaCl, 1% Triton X-100 and 10mM or 20mM reduced Glutathione. The purified GST-HDAC1 protein was dialyzed with HDAC storage buffer containing 10mM Tris, pH7.5, 100mM NaCl and 3mM MgCl2. […]
The assay has been carried out in 96 well format and the BIOMOL fluorescent-based HDAC activity assay has been applied. […] The fluorophore is excited with 360 nm light and the emitted light (460 nm) is detected on a fluorometric plate reader (Tecan Ultra Microplate detection system, Tecan Group Ltd.). […]

By UniProt entry, the sequences of proteins in these tests, tags left out.
UniProt Q13547, whole entry: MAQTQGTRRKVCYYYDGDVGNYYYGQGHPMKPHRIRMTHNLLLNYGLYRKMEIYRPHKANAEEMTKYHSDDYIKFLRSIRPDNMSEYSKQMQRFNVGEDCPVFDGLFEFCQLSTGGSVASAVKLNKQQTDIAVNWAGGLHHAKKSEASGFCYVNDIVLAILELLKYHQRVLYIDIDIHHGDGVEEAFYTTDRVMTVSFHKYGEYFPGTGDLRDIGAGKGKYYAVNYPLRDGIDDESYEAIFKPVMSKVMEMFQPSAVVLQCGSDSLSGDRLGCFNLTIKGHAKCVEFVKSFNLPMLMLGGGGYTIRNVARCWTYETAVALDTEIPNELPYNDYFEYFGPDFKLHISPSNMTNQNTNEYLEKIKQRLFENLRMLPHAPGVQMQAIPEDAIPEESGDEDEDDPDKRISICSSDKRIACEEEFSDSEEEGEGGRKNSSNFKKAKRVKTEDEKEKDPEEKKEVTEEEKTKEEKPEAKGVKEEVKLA

We go through one substance from patent EP2064211B1, “IMIDAZO[1,2-A]PYRIDINE HYDROXYMATE COMPOUNDS THAT ARE INHIBITORS OF HISTONE DEACETYLASE” (MEI Pharma, Inc., priority 2006, dated 2008).

As for “3-(2-Butyl-3-{(ethyl-(2-methyl-pentyl)-amino]-methyl}-imidazo[1,2-a]pyridin-7-yl)-N-hydroxy-acrylamide [Compound 41]”, the half-inhibitory concentration (IC50) is 60 nM.

As a reminder, the IC50 is the concentration needed to halve the response being measured.
